One assay concerns the target skTM and TM2. Kind of assay: FRET or BRET; AEDANS-TM at 0.6 µM titrated with DABMI-actin; quenching of AEDANS fluorescence (excitation 340 nm, emission 495 nm); 2 mM HEPES, pH 7.6, 40 mM NaCl, 5 mM MgCl2 at 22°C. (In general: In BRET a luciferase serves as donor, and the signal depends on an acceptor being close.)
The next assay concerns the target TM5a and TM1b9a. Described as above.

Values joined by “and” are separate entries in the source; they are usually repeats but may differ in a detail not shown here. Equal values may be shown once.

As for “Chicken skeletal muscle α-actin labeled with DABMI at Cys374 (from UniProt P68139 1-377) (natural protein)”, the stoichiometry N (actins per TM) with skTM and TM2 was 6 and 7; with TM5a and TM1b9a, 4 and 5.

Values taken from paper PMC3807590.
